Reference: article PMC11879040 (2024)

Chains of the proteins cited; added tags and fusions are not shown.
UniProt P08172, whole entry: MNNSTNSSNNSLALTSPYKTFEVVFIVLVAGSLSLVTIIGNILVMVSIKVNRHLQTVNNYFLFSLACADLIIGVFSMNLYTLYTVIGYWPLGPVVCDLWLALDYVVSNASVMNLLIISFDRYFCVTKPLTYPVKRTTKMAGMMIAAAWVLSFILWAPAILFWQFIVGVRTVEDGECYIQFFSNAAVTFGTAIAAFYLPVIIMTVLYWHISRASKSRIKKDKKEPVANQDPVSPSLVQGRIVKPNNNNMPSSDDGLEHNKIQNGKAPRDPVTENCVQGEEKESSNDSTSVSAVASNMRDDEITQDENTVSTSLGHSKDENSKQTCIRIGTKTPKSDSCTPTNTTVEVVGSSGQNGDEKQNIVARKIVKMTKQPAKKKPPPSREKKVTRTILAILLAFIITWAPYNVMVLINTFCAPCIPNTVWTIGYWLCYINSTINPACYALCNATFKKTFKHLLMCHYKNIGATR
UniProt P20309, whole entry: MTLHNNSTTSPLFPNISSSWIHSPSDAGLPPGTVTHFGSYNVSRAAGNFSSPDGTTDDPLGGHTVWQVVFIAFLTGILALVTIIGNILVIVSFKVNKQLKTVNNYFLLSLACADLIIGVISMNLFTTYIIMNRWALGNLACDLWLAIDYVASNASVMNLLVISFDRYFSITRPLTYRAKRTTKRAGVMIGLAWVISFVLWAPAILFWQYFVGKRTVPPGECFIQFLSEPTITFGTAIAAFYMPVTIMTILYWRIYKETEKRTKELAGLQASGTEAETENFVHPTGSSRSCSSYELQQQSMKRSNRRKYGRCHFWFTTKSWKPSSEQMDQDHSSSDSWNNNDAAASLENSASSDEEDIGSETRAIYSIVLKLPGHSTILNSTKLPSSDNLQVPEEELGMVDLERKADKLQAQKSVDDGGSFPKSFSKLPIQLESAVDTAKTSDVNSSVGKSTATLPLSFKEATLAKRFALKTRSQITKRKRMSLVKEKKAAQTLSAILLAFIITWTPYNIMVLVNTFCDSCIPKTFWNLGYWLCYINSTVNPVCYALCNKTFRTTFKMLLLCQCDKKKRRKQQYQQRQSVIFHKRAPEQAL
UniProt P31645, whole entry: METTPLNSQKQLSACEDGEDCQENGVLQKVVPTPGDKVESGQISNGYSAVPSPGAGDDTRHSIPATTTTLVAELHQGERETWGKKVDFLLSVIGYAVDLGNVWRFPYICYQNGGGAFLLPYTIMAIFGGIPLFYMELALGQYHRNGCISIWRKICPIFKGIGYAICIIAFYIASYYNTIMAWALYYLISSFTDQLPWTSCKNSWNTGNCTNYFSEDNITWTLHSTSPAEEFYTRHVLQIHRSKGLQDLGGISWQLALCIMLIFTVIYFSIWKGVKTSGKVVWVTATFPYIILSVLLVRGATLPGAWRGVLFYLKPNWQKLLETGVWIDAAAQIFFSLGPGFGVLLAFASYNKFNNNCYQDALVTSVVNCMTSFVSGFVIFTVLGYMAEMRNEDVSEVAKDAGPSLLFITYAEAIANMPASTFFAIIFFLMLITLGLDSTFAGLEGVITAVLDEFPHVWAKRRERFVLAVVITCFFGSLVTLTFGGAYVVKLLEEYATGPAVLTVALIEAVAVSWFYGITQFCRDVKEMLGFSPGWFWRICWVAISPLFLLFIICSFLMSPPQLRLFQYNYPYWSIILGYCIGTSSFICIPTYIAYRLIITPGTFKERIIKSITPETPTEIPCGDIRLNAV

How the values were obtained:
[1] = target: Muscarinic acetylcholine receptor M2, CHRM2 (h) (Homo sapiens, UniProt P08172)
[2] = target: Muscarinic acetylcholine receptor M3, CHRM3 (h) (Homo sapiens, UniProt P20309)
[3] = target: Sodium-dependent serotonin transporter, SLC6A4 (h) (Homo sapiens, UniProt P31645)

Substance: (4S,4aR,5S,5aR,6S,12aS)-4-(Dimethylamino)-3,5,6,10,12,12a-hexahydroxy-6-methyl-1,11-dioxo-1,4,4a,5,5a,6,11,12a-octahydrotetracene-2-carboxamide--hydrogen chloride (1/1) [Oxytetracycline hydrochloride]
- Specific binding [1]: -10.6%
- IPP screening %, Specific binding [2]: -6.6%
- Specific binding [3]: -0.5%
